In PMC12155096 (International Journal of Molecular Sciences, 2025):
Counter-ions that a name gives are not always drawn. Like-named read-outs stand apart in the source and are kept apart here.

Amino acid sequences for entries named in this document (tags omitted).
UniProt P11712, whole entry: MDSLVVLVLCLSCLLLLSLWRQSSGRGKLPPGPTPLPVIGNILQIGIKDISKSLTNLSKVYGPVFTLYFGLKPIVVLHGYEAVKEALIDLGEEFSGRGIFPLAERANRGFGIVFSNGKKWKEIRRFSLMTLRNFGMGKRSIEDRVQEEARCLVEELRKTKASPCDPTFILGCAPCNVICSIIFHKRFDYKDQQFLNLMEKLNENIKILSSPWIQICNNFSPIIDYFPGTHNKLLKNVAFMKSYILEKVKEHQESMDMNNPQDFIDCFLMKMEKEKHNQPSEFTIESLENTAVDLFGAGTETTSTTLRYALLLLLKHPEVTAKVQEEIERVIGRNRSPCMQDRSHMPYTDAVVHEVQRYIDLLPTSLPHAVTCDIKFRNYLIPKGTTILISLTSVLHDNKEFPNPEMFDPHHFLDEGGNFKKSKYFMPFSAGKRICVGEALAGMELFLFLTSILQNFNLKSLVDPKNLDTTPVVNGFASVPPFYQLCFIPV
UniProt P33261, whole entry: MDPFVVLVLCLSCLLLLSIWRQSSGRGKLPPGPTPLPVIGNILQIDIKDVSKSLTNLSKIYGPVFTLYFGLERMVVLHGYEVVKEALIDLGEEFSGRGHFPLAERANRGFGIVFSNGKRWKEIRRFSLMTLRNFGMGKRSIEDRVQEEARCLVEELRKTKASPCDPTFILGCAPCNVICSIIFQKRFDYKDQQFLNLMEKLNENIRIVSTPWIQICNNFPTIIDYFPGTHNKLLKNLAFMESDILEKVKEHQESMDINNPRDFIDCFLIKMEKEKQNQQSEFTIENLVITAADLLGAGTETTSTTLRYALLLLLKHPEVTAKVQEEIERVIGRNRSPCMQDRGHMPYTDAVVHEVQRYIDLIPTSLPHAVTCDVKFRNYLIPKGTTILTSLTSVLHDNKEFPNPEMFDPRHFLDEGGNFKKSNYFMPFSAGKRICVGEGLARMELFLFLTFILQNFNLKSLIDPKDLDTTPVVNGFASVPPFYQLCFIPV
UniProt P10635, whole entry: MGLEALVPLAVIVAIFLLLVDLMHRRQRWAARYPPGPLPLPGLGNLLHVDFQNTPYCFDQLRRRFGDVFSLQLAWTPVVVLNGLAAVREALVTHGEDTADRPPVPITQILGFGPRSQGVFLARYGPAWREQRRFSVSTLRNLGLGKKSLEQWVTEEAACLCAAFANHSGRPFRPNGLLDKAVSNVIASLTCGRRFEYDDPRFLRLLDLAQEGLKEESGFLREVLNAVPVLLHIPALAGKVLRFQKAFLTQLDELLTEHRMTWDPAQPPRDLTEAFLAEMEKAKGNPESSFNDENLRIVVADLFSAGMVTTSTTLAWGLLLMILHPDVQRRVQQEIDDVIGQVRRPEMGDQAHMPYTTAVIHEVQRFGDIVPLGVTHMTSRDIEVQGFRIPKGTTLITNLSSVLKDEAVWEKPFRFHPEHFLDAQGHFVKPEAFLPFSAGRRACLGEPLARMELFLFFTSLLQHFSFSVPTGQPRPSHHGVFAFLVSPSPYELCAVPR
UniProt P05177, whole entry: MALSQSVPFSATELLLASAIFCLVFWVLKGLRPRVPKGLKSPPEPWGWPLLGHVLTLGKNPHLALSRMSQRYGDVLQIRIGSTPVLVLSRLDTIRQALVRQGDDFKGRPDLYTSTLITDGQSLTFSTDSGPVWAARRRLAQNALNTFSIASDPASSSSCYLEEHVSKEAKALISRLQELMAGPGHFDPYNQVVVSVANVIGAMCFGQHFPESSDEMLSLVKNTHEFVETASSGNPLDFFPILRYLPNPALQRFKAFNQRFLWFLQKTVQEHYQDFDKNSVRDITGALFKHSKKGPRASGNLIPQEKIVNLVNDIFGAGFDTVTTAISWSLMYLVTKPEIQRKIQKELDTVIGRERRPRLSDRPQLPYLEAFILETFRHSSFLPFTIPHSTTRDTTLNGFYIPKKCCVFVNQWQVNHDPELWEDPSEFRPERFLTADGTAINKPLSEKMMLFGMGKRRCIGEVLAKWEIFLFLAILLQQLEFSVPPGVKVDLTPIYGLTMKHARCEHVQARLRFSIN
UniProt P08684, whole entry: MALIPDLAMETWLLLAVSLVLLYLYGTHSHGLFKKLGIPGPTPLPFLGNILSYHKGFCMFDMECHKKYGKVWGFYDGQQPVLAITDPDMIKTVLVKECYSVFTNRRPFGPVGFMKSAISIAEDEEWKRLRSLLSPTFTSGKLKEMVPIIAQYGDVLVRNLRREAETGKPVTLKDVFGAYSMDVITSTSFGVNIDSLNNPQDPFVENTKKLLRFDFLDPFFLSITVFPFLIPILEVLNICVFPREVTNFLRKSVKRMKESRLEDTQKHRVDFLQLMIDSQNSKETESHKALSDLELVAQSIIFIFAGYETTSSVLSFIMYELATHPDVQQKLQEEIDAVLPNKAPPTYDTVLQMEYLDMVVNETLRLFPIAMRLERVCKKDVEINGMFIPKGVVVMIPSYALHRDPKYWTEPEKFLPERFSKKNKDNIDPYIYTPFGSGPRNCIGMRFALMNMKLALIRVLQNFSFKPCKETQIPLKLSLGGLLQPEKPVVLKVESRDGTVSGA
UniProt P08659, whole entry: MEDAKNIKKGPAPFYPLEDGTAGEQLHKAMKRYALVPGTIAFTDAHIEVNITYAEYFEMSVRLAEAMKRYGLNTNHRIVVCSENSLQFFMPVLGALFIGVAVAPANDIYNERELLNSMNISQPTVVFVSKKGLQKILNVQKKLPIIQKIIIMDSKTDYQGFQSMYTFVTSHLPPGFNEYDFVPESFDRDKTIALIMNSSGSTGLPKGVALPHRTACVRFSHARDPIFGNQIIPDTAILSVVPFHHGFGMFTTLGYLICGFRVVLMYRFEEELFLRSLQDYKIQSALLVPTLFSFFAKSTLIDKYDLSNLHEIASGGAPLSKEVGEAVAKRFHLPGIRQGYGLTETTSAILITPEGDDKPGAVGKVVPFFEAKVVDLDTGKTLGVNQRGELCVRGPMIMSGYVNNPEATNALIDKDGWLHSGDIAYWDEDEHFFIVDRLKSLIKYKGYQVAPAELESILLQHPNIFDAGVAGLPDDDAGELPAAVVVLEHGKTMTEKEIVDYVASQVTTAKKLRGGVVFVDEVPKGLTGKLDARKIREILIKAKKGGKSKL

Columns and labels:
human CYP2C9 [1] = target: T1, human CYP2C9 (Homo sapiens, UniProt P11712)
human CYP2C19 [2] = target: T2, human CYP2C19 (Homo sapiens, UniProt P33261)
human CYP2D6 [3] = target: T3, human CYP2D6 (Homo sapiens, UniProt P10635)
human CYP2C9 [4] = target: T1, human CYP2C9; assay: biochemical; conditions: for AC50: CYP2C9 AC50 (half-maximal activity concentration)
human CYP2C19 [5] = target: T2, human CYP2C19; assay: biochemical; conditions: for IC50: CYP2C19 IC50 (half-maximal inhibitory concentration); for AC50: CYP2C19 AC50 (half-maximal activity concentration)
human CYP2D6 [6] = target: T3, human CYP2D6; assay: biochemical; conditions: for AC50: CYP2D6 AC50 (half-maximal activity concentration)
human CYP1A2 [7] = target: T4, human CYP1A2 (Homo sapiens, UniProt P05177); assay: biochemical; conditions: for AC50: CYP1A2 AC50 (half-maximal activity concentration); for IC50: CYP1A2 IC50 (half-maximal inhibitory concentration)
human CYP1A2 [8] = target: T4, human CYP1A2; conditions: for CYP1A2 Efficacy (in parenthesis): human
CYP3A4 [9] = target: T5, CYP3A4 (Homo sapiens, UniProt P08684); assay: biochemical; conditions: CYP3A4 AC50 (half-maximal activity concentration)
CYP3A4 [10] = target: T5, CYP3A4
[11] = target: T6, Photinus pyralis (firefly) luciferase (Photinus pyralis, UniProt P08659)
[12] = target: T6, Photinus pyralis (firefly) luciferase; assay: biochemical
[13] = CYP2D6 IC50 (half-maximal inhibitory concentration)
[14] = read-out: Luciferase IC50 (half-maximal inhibitory concentration)

Q: How did the “CYP2C9 Efficacy (in parenthesis)” value (human CYP2C9 [1]; human) turn out when `O=[N+]([O-])c1cc([N+](=O)[O-])c2ccccc2c1` [1,3-Dinitronaphthalene] was run?
A: 32.22 ± 6.93 (29 ± 3) %

Q: What about the “CYP2C19 Efficacy (in parenthesis)” value (human CYP2C19 [2]; human) of the same molecule?
A: 31.83 ± 10.47 (-82 ± 16) %

Q: And the “CYP2D6 Efficacy (in parenthesis)” value (human CYP2D6 [3]; human)?
A: 32.64 ± 9.1 (-41 ± 6) %

Q: What about the IC50 (human CYP2C9 [4]) of the same molecule?
A: 32.2 µM

Q: And the IC50 (human CYP2C19 [5])?
A: 31.8 µM

Q: What about the IC50 (human CYP2D6 [6]; [13]) of the same molecule?
A: 32.6 µM

Q: For `O=[N+]([O-])c1cccc2cccc([N+](=O)[O-])c12` [1,8-Dinitronaphthalene], which AC50 (human CYP1A2 [7]) is on record?
A: 1.99 µM

Q: What about the AC50 (human CYP2C9 [4]) of the same molecule?
A: 9.96 µM

Q: And the AC50 (human CYP2C19 [5])?
A: 28.4 µM

Q: With `O=C(O)c1cccc(C(=O)O)n1` [2,6-Pyridinedicarboxylic acid] as the molecule, how does the “CYP1A2 AC50 (half-maximal activity concentration)” value (human CYP1A2 [8]) read?
A: Inactive

Q: And the “CYP2C9 AC50 (half-maximal activity concentration)” value (“CYP2C9 AC50” for short) (human CYP2C9 [1])?
A: Inactive

Q: What about the “CYP2C19 AC50 (half-maximal activity concentration)” value (“CYP2C19 AC50” below) (human CYP2C19 [2]) of the same molecule?
A: Inconclusive inhibitor

Q: What about the “CYP2D6 AC50 (half-maximal activity concentration)” value (human CYP2D6 [3]) of the same molecule?
A: Inactive

Q: What about the AC50 (CYP3A4 [9]) of the same molecule?
A: 5.81 µM

Q: For `Oc1cc2ccccc2c2ccccc12` [9-Phenanthrol], which IC50 (CYP3A4 [10]) is on record?
A: 6.1 µM

Q: For `CC(C)COCC(CN(Cc1ccccc1)c1ccccc1)N1CCCC1` (stereo not drawn) [Bepridil], which IC50 (human CYP2C9 [4]; CYP2C9 IC50) is on record?
A: 22.2 µM

Q: How did the “Luciferase IC50 (half-maximal inhibitory concentration)” value [11] turn out when `CCOP(=S)(OCC)Oc1cc(Cl)c(Br)cc1Cl` [Bromophos-ethyl] was run?
A: Inactive

Q: Which IC50 [11, 14] does the source give for `CN(C)c1ccc(C(=C2C=CC(=[N+](C)C)C=C2)c2ccccc2)cc1.O=C([O-])C(=O)O` [C.I. Basic Green 4 oxalate (1:x)] here?
A: 20.1 µM

Q: With `CCN(CC)C(=O)c1cccc(C)c1` [DEET] as the molecule, how does the AC50 (human CYP1A2 [8]) read?
A: 40.1 µM

Q: What about the “CYP2C9 AC50” value (human CYP2C9 [1]) of the same molecule?
A: Inactive

Q: What about the AC50 (human CYP2C19 [2]) of the same molecule?
A: 62.1 µM

Q: What about the “CYP2C19 Efficacy” value (human CYP2C19 [2]) of the same molecule?
A: 62.06 ± 23.35 (-92 ± 15) %

Q: And the “CYP2D6 AC50 (half-maximal activity concentration)” value (human CYP2D6 [3])?
A: Inactive

Q: With `CCOP(=S)(OCC)Oc1ccc([S+](C)[O-])cc1` (stereo not drawn) [Fensulfothion] as the molecule, how does the “Luciferase IC50” value [11] read?
A: Inactive

Q: How did the “Luciferase IC50 (half-maximal inhibitory concentration)” value [11] turn out when `OCCN1CCN(CCCN2c3ccccc3Sc3ccc(C(F)(F)F)cc32)CC1` [Fluphenazine hydrochloride] was run?
A: Inactive

Q: For `CC(C)Cn1cnc2c(N)nc3ccccc3c21` [Imiquimod], which “CYP2C9 AC50” value (human CYP2C9 [1]) is on record?
A: Inactive

Q: And the “CYP2C19 AC50” value (human CYP2C19 [2])?
A: Inactive

Q: And the AC50 (human CYP1A2 [7])?
A: 4.26 µM

Q: What about the AC50 (human CYP2D6 [6]) of the same molecule?
A: 5.38 µM

Q: For `CCOP(=S)(OCC)Oc1nc(Cl)n(C(C)C)n1` [Isazofos], which “Luciferase IC50” value [11] is on record?
A: Inactive

Q: Which IC50 (human CYP2C19 [5]; mean ± standard deviation from three experiments, Inactive = no activity call) does the source give for `CS(=O)(=O)CCNCc1ccc(-c2ccc3ncnc(Nc4ccc(OCc5cccc(F)c5)c(Cl)c4)c3c2)o1` [Lapatinib] here?
A: 11.2 ± 2.55 µM

Q: With `CN(C)c1ccc(C(=C2C=CC(=[N+](C)C)C=C2)c2ccccc2)cc1.CN(C)c1ccc(C(=C2C=CC(=[N+](C)C)C=C2)c2ccccc2)cc1.O=C(O)C(=O)O.O=C([O-])C(=O)O.O=C([O-])C(=O)O` [Malachite green oxalate] as the molecule, how does the IC50 [11, 14] read?
A: 24.9 µM

Q: `CN(C)c1ccc(C(=C2C=CC(=[N+](C)C)C=C2)c2ccccc2)cc1` [Malachite green] was tested. Which IC50 [12] did it give?
A: 28.9 µM

Q: `CC1(C)CCC(Cc2ccc(Cl)cc2)C1(O)Cn1cncn1` (stereo not drawn) [Metconazole] was tested. Which “CYP1A2 Efficacy (in parenthesis)” value (human CYP1A2 [8]) did it give?
A: 39.91 ± 0 (-61 ± 3) %

Q: What about the IC50 (human CYP1A2 [7]) of the same molecule?
A: 39.9 µM

Q: What does the source list for `CN(C)c1ccc2nc3ccc(=[N+](C)C)cc-3sc2c1` [Methylene blue]?
A: IC50 (human CYP1A2 [7]): 2.25 µM; IC50 (human CYP2C9 [4]): 7.96 µM; IC50 (human CYP2D6 [6]; [13]): 9.87 µM

Q: `COc1ccnc2c1CCCCC2[S+]([O-])c1nc2ccccc2[nH]1` (stereo not drawn) [Nepaprazole] was tested. Which IC50 (human CYP2D6 [6]) did it give?
A: 0.33 ± 0.1 µM

Q: `CCCCOCCOC(=O)c1cccnc1` [Nicoboxil] was tested. Which “Luciferase IC50 (half-maximal inhibitory concentration)” value [11] did it give?
A: Inactive

Q: How did the AC50 (human CYP1A2 [7]) turn out when `CC1(C)C(C=C(Cl)Cl)C1C(=O)OCc1cccc(Oc2ccccc2)c1` (stereo not drawn) [Permethrin] was run?
A: 43.2 µM

Q: For `O=c1[nH]c2ccccc2n1C1CCN(CCCC(c2ccc(F)cc2)c2ccc(F)cc2)CC1` [Pimozide], which “CYP2C19 AC50” value (human CYP2C19 [2]) is on record?
A: Inconclusive inhibitor

Q: What about the AC50 (human CYP2C9 [4]) of the same molecule?
A: 16.1 µM

Q: And the AC50 (human CYP2D6 [6])?
A: 3.75 µM

Q: `CC(=O)c1ccc2c(c1)N(CCCN1CCC(CCO)CC1)c1ccccc1S2` [Piperacetazine] was tested. Which “Luciferase IC50 (half-maximal inhibitory concentration)” value [11] did it give?
A: Inactive

Q: `CCOP(=S)(OCC)Oc1cc(C)nc(N(CC)CC)n1` [Pirimiphos-ethyl] was tested. Which “Luciferase IC50 (half-maximal inhibitory concentration)” value [11] did it give?
A: Inactive

Q: What does the source list for `COc1cc(NC(C)CCCN)c2ncccc2c1` (stereo not drawn) [Primaquine diphosphate]?
A: IC50 (human CYP1A2 [7]): 0.45 µM; IC50 (human CYP2C9 [4]): 26.5 µM; IC50 (human CYP2C19 [5]): 11.6 µM; IC50 (human CYP2D6 [6]; [13]): 7.26 µM

Q: For `CN(C)CCCN1c2ccccc2Sc2ccccc21` [Promazine hydrochloride], which “Luciferase IC50 (half-maximal inhibitory concentration)” value [11] is on record?
A: Inactive

Q: How did the “CYP1A2 AC50 (half-maximal activity concentration)” value (human CYP1A2 [8]) turn out when `CCc1nc(N)nc(N)c1-c1ccc(Cl)cc1` [Pyrimethamine] was run?
A: Inactive

Q: What about the AC50 (human CYP2C9 [4]) of the same molecule?
A: 74.5 µM

Q: What about the AC50 (human CYP2C19 [5]) of the same molecule?
A: 53.2 µM

Q: With `CN(CCOc1ccc(CC2SC(=O)NC2=O)cc1)c1ccccn1` (stereo not drawn) [Rosiglitazone maleate] as the molecule, how does the AC50 (human CYP1A2 [7]) read?
A: 79.5 µM

Q: And the AC50 (human CYP2C9 [4])?
A: 53.7 µM

Q: Which results are given for `O=S(=O)([O-])c1ccc2ccccc2c1.[Na+]` [Sodium 2-naphthalenesulfonate]?
A: CYP1A2 AC50 (half-maximal activity concentration) (human CYP1A2 [8]): Inactive; CYP2C9 AC50 (half-maximal activity concentration) (human CYP2C9 [1]): Inconclusive inhibitor; CYP2C19 AC50 (half-maximal activity concentration) (human CYP2C19 [2]): Inactive; CYP2D6 AC50 (half-maximal activity concentration) (human CYP2D6 [3]): Inactive

Q: `CC1(C)CCC(=Cc2ccc(Cl)cc2)C1(O)Cn1cncn1` (stereo not drawn) [Triticonazole] was tested. Which “CYP1A2 Efficacy (in parenthesis)” value (human CYP1A2 [8]) did it give?
A: 39.86 ± 4.58 (-51 ± 5) %

Q: What about the IC50 (human CYP1A2 [7]) of the same molecule?
A: 39.9 µM

Q: `OC(Cn1cncn1)(Cn1cncn1)c1ccc(F)cc1F` [fluconazole, reference compound] was tested. Which IC50 (human CYP2C9 [4]; IC50 CYP2C9 assay) did it give?
A: 15 µM

Q: Phenylmercuric acetate was tested. Which IC50 (human CYP1A2 [8]) did it give?
A: 17.7 µM

Q: And the IC50 (human CYP2C9 [1])?
A: 3.24 µM

Q: What about the IC50 (human CYP2C19 [2]) of the same molecule?
A: 9.31 µM

Q: And the IC50 (human CYP2D6 [3])?
A: 0.33 µM

Q: What about the IC50 (CYP3A4 [10]) of the same molecule?
A: 6.1 µM

Q: And the IC50 ([11]; read-out: Luciferase IC50)?
A: 2.15 µM
